Results reported in patent publication US5686424A, “2-oxoethyl derivatives as immunosuppressants” (Miles Inc., priority 1995, dated 1997).

By UniProt entry, the sequences of proteins in these tests, tags left out.
UniProt P62942, whole entry: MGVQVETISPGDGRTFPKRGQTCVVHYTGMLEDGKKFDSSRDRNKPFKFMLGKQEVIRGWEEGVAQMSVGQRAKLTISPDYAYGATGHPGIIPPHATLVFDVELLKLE

Biological target: FKBP (Homo sapiens, UniProt P62942)
Assay: PPIase Inhibition Assay
Format: biochemical
Protocol: 1) Inhibition of PPIase Activity
This assay follows in principle the procedure described in Kofron et al., 1991, Biochemistry 30:6127.
The three main reagents used are PPIase, a substrate for PPIase, and a selected inhibitor compound of the present invention. The basic principle behind this assay is the conversion of the cis isomer of the substrate to the trans form, which conversion is catalyzed by PPIase. Essentially, inhibition of this PPIase activity is measured for the selected compounds. A peptide chymotrypsin substrate containing a proline in the P2 position is only cleaved by chymotrypsin when the Phe-Pro bond is in the trans isomeric configuration. […]
The cis peptide will spontaneously convert to the trans isomer at a slow rate. […] After isomerization, the peptide is cleaved by chymotrypsin releasing p-nitroaniline which can be monitored at 390 nm. The rate of release is then calculated using a first order rate plus offset equation utilizing the ENZFITTER program (Leatherbarrow, BIOSOFT, Cambridge, United Kingdom). […]
The absorbance at 390 nm versus time is monitored for 90 sec using a Beckman DU70 spectrophotometer. The absorbance versus time data files are transferred to an IBM XT computer and the rate constants determined using the commercial enzfitter program. For each set of data, the uncatalyzed rate of conversion is measured and the uninhibited enzymatic rate determined. […]

Substance: L-Isoleuclne, N-[1-(2-(1-Methyl-Cyclohexyl)-2-Oxoethyl)-L-Prolyl] Benzylamide [Example 44]
- IC50: < 5 µM
